The chains behind the UniProt entries cited, without tags or fusion partners. Where a name states a change or a piece, a line headed by the entry shows the natural chain unless it says otherwise.
UniProt Q9P1W9: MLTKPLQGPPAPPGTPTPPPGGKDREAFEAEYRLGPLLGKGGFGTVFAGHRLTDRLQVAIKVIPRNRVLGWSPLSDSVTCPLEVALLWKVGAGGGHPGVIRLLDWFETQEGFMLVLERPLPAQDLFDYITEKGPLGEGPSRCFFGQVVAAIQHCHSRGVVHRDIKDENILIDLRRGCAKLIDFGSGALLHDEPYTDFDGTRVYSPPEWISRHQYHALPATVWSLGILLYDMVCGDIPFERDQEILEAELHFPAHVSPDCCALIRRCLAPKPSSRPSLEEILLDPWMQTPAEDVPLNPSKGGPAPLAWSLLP

According to patent US8981092B2, “Substituted 3,4-dihydro-2H-pyrrolo[1,2-a]pyrazin-1-ones as modulators of protein kinase activity” (Nerviano Medical Sciences S.r.l., priority 2008, dated 2015):

Target: Full-length human PIM-2 (Homo sapiens, UniProt Q9P1W9)
Conditions: read-out: PIM-2 IC50; ATP 4 μM, Aktide 5 μM, enzyme 1.5 nM

| Compound | IC50 [µM] |
| --- | --- |
| O=C(CC1CNC(=O)c2cc(-c3ccc(F)c(F)c3)cn21)NCc1ccncc1 (centres unmarked) [Compound A139-M-B39] | 3.05 |
| NCC(NC(=O)CC1CNC(=O)c2cc(-c3cc(F)ccc3F)cn21)c1ccccc1 (stereo not drawn) [A158-M-B65 isomer S] | 0.18 |
| NC[C@@H](NC(=O)C[C@@H]1CNC(=O)c2cc(-c3ccnc(F)c3)cn21)c1ccccc1 [A157-M-B65 isomer R] | 0.5 |
| O=C(CC1CNC(=O)c2cc(-c3ccccc3F)cn21)NCc1cccc(F)c1 (centres unmarked) [Compound A128-M-B30] | 2.03 |
| O=C(CC1CNC(=O)c2cc(-c3cccc(OC(F)(F)F)c3)cn21)NCc1cccc(F)c1 (centres unmarked) [Compound A134-M-B30] | 5.8 |
| O=C(C[C@@H]1CNC(=O)c2cc(-c3ccnc(F)c3)cn21)N[C@H](CO)c1ccccc1 [A157-M-B62 isomer R] | 1.05 |
| O=C(CC1CNC(=O)c2cc(-c3ccc(F)c(F)c3)cn21)NCc1ccccc1 (centres unmarked) [Compound A139-M-B14] | 3.44 |
| O=C(CC1CNC(=O)c2cc(-c3cccc(Cl)c3)cn21)NCCN1CCOCC1 (centres unmarked) [Compound A150-M-B38] | 7.51 |
| NC[C@@H](NC(=O)C[C@H]1CNC(=O)c2cc(-c3ccnc(F)c3)cn21)c1ccccc1 [A157-M-B65 isomer S] | 0.1 |
| O=C(CC1CNC(=O)c2cc(-c3ccccc3F)cn21)NCc1ccco1 (centres unmarked) [Compound A128-M-B40] | 4.5 |
| O=C(C[C@@H]1CNC(=O)c2cc(-c3cc(F)ccc3F)cn21)N[C@H](CO)c1ccccc1 [A158-M-B62 isomer R] | 0.66 |
| O=C(C[C@@H]1CNC(=O)c2cc(-c3cccc(C(F)(F)F)c3)cn21)N[C@H](CO)C1CCCCC1 [A133-M-B61 isomer R] | ≥ 10 |
| COC(=O)c1cccc(-c2cc3n(c2)C(CC(=O)NCc2ccccc2)CNC3=O)c1 (centres unmarked) [Compound A142-M-B14] | 6.62 |
| O=C(C[C@@H]1CNC(=O)c2cc(-c3cccc(C(F)(F)F)c3)cn21)N[C@H](CO)Cc1ccccc1 [A133-M-B64 isomer R] | ≥ 10 |
| COC(=O)c1cccc(-c2cc3n(c2)C(CC(=O)NCc2cccc(F)c2)CNC3=O)c1 (centres unmarked) [Compound A142-M-B30] | 2.58 |
| O=C(CC1CNC(=O)c2cc(-c3cccc(Cl)c3)cn21)NC1CCCC1 (centres unmarked) [Compound A150-M-B26] | 5.51 |
| CN1CCN(C(=O)CC2CNC(=O)c3cc(-c4cccc(F)c4)cn32)C(c2ccccc2)C1 (mixture of isomers) [Compound A127-M-B63] | 2.44 |
| O=C(CC1CNC(=O)c2cc(-c3ccc(F)cc3F)cn21)NCc1ccccc1 (centres unmarked) [Compound A151-M-B14] | 2.25 |
| O=C(CC1CNC(=O)c2cc(-c3ccsc3)cn21)NCc1cccc(F)c1 (centres unmarked) [Compound A33-M-B30] | 1.92 |
| O=C(C[C@H]1CNC(=O)c2cc(-c3cccc(F)c3)cn21)N[C@H](CO)c1ccccc1 [A127-M-B62 isomer S] | 0.52 |
| Cc1ccccc1NC(=O)CC1CNC(=O)c2cc(-c3cccc(Cl)c3)cn21 (centres unmarked) [Compound A150-M-B36] | 8.98 |
| O=C(C[C@H]1CNC(=O)c2cc(-c3cccc(F)c3)cn21)N[C@H](CO)C1CCCCC1 [A127-M-B61 isomer S] | 0.25 |

| Compound | IC50 [µM] |
| --- | --- |
| O=C(CC1CNC(=O)c2cc(-c3cccc(Cl)c3)cn21)NCc1ccccc1 (centres unmarked) [Compound A150-M-B14] | 1.52 |
| O=C(C[C@@H]1CNC(=O)c2cc(-c3ccnc(F)c3)cn21)N[C@H](CO)Cc1ccccc1 [A157-M-B64 isomer R] | 2.81 |
| O=C(CC1CNC(=O)c2cc(-c3cccc(F)c3)cn21)NCc1cccc(F)c1 (centres unmarked) [Compound A127-M-B30] | 1.67 |
| O=C(CC1CNC(=O)c2cc(-c3cccc(Cl)c3)cn21)Nc1ccccc1 (centres unmarked) [Compound A150-M-B52] | 5.17 |
| O=C(CC1CNC(=O)c2cc(-c3ccccc3F)cn21)NCc1ccccc1 (centres unmarked) [Compound A128-M-B14] | 2.11 |
| NC[C@@H](NC(=O)C[C@H]1CNC(=O)c2cc(-c3cccc(F)c3)cn21)c1ccccc1 [A127-M-B65 isomer S] | 0.18 |
| O=C(CC1CNC(=O)c2cc(-c3cccc(OC(F)(F)F)c3)cn21)NCc1ccccc1 (centres unmarked) [Compound A134-M-B14] | 7.22 |
| O=C(C[C@H]1CNC(=O)c2cc(-c3cccc(C(F)(F)F)c3)cn21)N[C@H](CO)c1ccccc1 [A133-M-B62 isomer S] | 1.33 |
| O=C(CC1CNC(=O)c2cc(-c3ccsc3)cn21)NCC1CCCCC1 (centres unmarked) [Compound A33-M-B22] | 5.03 |
| O=C(CC1CNC(=O)c2cc(-c3cn[nH]c3)cn21)NCC1CCCCC1 (centres unmarked) [Compound A144-M-B22] | 0.66 |
| O=C(CC1CNC(=O)c2cc(-c3ccc4c(c3)OCO4)cn21)NCC1CCCCC1 (centres unmarked) [Compound A132-M-B22] | ≥ 10 |
| CN1CCN(C(=O)CC2CNC(=O)c3cc(-c4cccc(C(F)(F)F)c4)cn32)C(c2ccccc2)C1 (mixture of isomers) [Compound A133-M-B63] | ≥ 10 |
| O=C(CC1CNC(=O)c2cc(-c3ccc(F)cc3F)cn21)NCc1ccncc1 (centres unmarked) [Compound A151-M-B39] | 3.69 |
| O=C(CC1CNC(=O)c2cc(-c3cccc(Cl)c3)cn21)NCC1CC1 (centres unmarked) [Compound A150-M-B48] | 2.86 |
| O=C(CC1CNC(=O)c2cc(-c3ccccc3F)cn21)NCc1ccncc1 (centres unmarked) [Compound A128-M-B39] | 0.87 |
| O=C(CC1CNC(=O)c2cc(-c3cccc(C(F)(F)F)c3)cn21)NCc1ccccc1 (centres unmarked) [Compound A133-M-B14] | 7.4 |
| CN1CCN(C(=O)CC2CNC(=O)c3cc(-c4cc(F)ccc4F)cn32)C(c2ccccc2)C1 (mixture of isomers) [Compound A158-M-B63] | 3.05 |
| O=C(CC1CNC(=O)c2cc(-c3cn[nH]c3)cn21)NCc1ccccc1 (centres unmarked) [Compound A144-M-B14] | 4.92 |
| CN1CCN(C(=O)CC2CNC(=O)c3cc(-c4ccnc(F)c4)cn32)C(c2ccccc2)C1 (mixture of isomers) [Compound A157-M-B63] | 2.37 |
| O=C1NCC(CC(=O)N2CCCCCC2)n2cc(-c3cccc(Cl)c3)cc21 (centres unmarked) [Compound A150-M-B45] | 4.65 |
| O=C(CC1CNC(=O)c2cc(-c3ccc(F)cc3)cn21)NCC1CCCCC1 (centres unmarked) [Compound A129-M-B22] | 5.92 |
| O=C(C[C@@H]1CNC(=O)c2cc(-c3cccc(C(F)(F)F)c3)cn21)N[C@H](CO)c1ccccc1 [A133-M-B62 isomer R] | ≥ 10 |

| Compound | IC50 [µM] |
| --- | --- |
| O=C(CC1CNC(=O)c2cc(-c3cccc(Cl)c3)cn21)NC1CCCCC1 (centres unmarked) [Compound A150-M-B24] | 4.06 |
| CC(C)CCNC(=O)CC1CNC(=O)c2cc(-c3ccccc3F)cn21 (centres unmarked) [Compound A128-M-B32] | 7.55 |
| CC(C)(C)NC(=O)CC1CNC(=O)c2cc(-c3cccc(Cl)c3)cn21 (centres unmarked) [Compound A150-M-B43] | 5.89 |
| O=C(C[C@@H]1CNC(=O)c2cc(-c3ccnc(F)c3)cn21)N[C@H](CO)C1CCCCC1 [A157-M-B61 isomer R] | 2.83 |
| O=C(CC1CNC(=O)c2cc(-c3cccc(F)c3)cn21)NCc1ccncc1 (centres unmarked) [Compound A127-M-B39] | 1.15 |
| COCCCNC(=O)CC1CNC(=O)c2cc(-c3cccc(Cl)c3)cn21 (centres unmarked) [Compound A150-M-B42] | ≥ 10 |
| O=C(CC1CNC(=O)c2cc(-c3cccc(C(F)(F)F)c3)cn21)NCC1CCCCC1 (centres unmarked) [Compound A133-M-B22] | ≥ 10 |
| CC(C)CCNC(=O)CC1CNC(=O)c2cc(-c3ccc(F)cc3F)cn21 (centres unmarked) [Compound A151-M-B32] | ≥ 10 |
| CCCNC(=O)CC1CNC(=O)c2cc(-c3cccc(Cl)c3)cn21 (centres unmarked) [Compound A150-M-B25] | 5.86 |
| NC[C@@H](NC(=O)C[C@H]1CNC(=O)c2cc(-c3cccc(C(F)(F)F)c3)cn21)c1ccccc1 [A133-M-B65 isomer S] | 0.82 |
| CC(C)CCNC(=O)CC1CNC(=O)c2cc(-c3cccc(Cl)c3)cn21 (centres unmarked) [Compound A150-M-B32] | 4.49 |
| O=C(CC1CNC(=O)c2cc(-c3cccc(Cl)c3)cn21)NCc1ccncc1 (centres unmarked) [Compound A150-M-B39] | 0.6 |
| O=C(CC1CNC(=O)c2cc(-c3ccc(F)c(F)c3)cn21)NCc1ccco1 (centres unmarked) [Compound A139-M-B40] | 2.22 |
| O=C(C[C@@H]1CNC(=O)c2cc(-c3cc(F)ccc3F)cn21)N[C@H](CO)C1CCCCC1 [A158-M-B61 isomer R] | 5.55 |
| O=C(C[C@@H]1CNC(=O)c2cc(-c3cccc(F)c3)cn21)N[C@H](CO)Cc1ccccc1 [A127-M-B64 isomer R] | ≥ 10 |
| O=C(CC1CNC(=O)c2cc(-c3ccc(F)c(F)c3)cn21)NCc1ccc(F)cc1 (centres unmarked) [Compound A139-M-B30] | 3.37 |
| O=C(CC1CNC(=O)c2cc(-c3cn[nH]c3)cn21)NCc1ccc(F)cc1 (centres unmarked) [Compound A144-M-B30] | 0.68 |
| O=C(C[C@H]1CNC(=O)c2cc(-c3cccc(C(F)(F)F)c3)cn21)N[C@H](CO)C1CCCCC1 [A133-M-B61 isomer S] | 4.79 |
| O=C(CC1CNC(=O)c2cc(-c3cccc(F)c3)cn21)NCc1ccccc1 (centres unmarked) [Compound A127-M-B14] | 2.74 |
| C=CCN1CCN(C(=O)CC2CNC(=O)c3cc(-c4cccc(Cl)c4)cn32)CC1 (centres unmarked) [Compound A150-M-B49] | 1.61 |
| CC(C)CCNC(=O)CC1CNC(=O)c2cc(-c3cccc(F)c3)cn21 (centres unmarked) [Compound A127-M-B32] | ≥ 10 |
